# According to US9980980B2, “Compounds, compositions and methods for protecting brain health in neurodegenerative disorders” (Amazentis SA, priority 2009, dated 2018):
# Molecular target: Aβ(25-35) (Homo sapiens, UniProt P05067)
# Test: Screening assay for inhibition of Aβ(25-35) aggregation (Thioflavin-T fluorescence)
# Format: biochemical
# Conditions: read-out: IC50 for inhibiting aggregation of Aβ25-35; molecule at purity above 90%; ThT fluorescence, 25° C., 0-120 minutes
# Protocol: Monomeric Aβ(25-35) purchased from Bachem Pharma, was dissolved in distilled sterile water at 4° C., then sonitcated for about 1 minute. The peptide stock solution was then aliquoted and stored at −20° C. All steps were carried out at 4° C. to prevent Aβ(25-35) polymerization.
# Fractions of polyphenols were all standardized to 10 μg/mL, before being assessed and stored at −20° C. Measurement of inhibition was performed by following the kinetic of Aβ(25-35) polymerization in a reaction mixture containing 70 μL phosphate buffer, 10 μL Thioflavin-T (100 μM stock solution), 10 μL MeOH (10 mM final concentration) pH 7.2 and 10 μL of Aβ(25-35) (100 μM final concentration) adapting known in the art procedures. LeVine, H., 3rd (1993). “Thioflavine T interaction with synthetic Alzheimer's disease beta-amyloid peptides: detection of amyloid aggregation in solution.” Protein Sci. 2(3): 404-10. […]
# To study the inhibitory activity of the fractions, the extracts were diluted to the final concentration in MeOH and 10 μL was added to the mixture at 4° C. Fluorescence spectroscopy was recorded with the excitation at 450 nm and emission at 490 nm. The polymerization kinetics was monitored at 25° C. between 0 and 120 minutes. The IC50 was calculated by using a least-square fitting technique to match the experimental data with a sigmoidal curve. […]
compound,measurement,value
O=C(OC1OC2COC(=O)c3cc(O)c(O)c(O)c3-c3c(cc(O)c(O)c3O)C(=O)OC2C(OC(=O)c2cc(O)c(O)c(O)c2)C1O)c1cc(O)c(O)c(O)c1 (stereo not shown),IC50,9.3 µM
